Columns and labels:
AOX1 = conditions: human hepatocytes, 0–100 μM NIM for 24 h, concentration-dependent
AOX1 mRNA [1] = conditions: human hepatocytes, 0–100 μM NIM for 24 h
AOX1 mRNA [2] = conditions: rat livers, 20, 50, 100 mg·kg−1·d−1 NIM for 5 days
[3] = tested on: sandwich-cultured rat hepatocytes; conditions: after NIM treatment

For `CS(=O)(=O)Nc1ccc([N+](=O)[O-])cc1Oc1ccccc1` [NIM, nimesulide], which AOX1 protein level (AOX1) is on record?
The AOX1 protein level was “increased”.

What about the “increase in AOX1 mRNA levels” value (AOX1 mRNA [1]) of the same compound?
Its value is < 1.5 fold.

What about the “AOX1 mRNA level” value (AOX1 mRNA [2]) of the same compound?
The value was “no significant alteration”.

What about the “biliary excretion index (BEI) of MTX” value [3] of the same compound?
Its value is “not changed”.
